The text below walks through data of ChEMBL document CHEMBL1926677, “Further structure-activity relationship studies on 8-substituted-3-[2-(diarylmethoxyethylidenyl)]-8-azabicyclo[3.2.1]octane derivatives at monoamine transporters” (Bioorg Med Chem, 2011).

Protein sequences, listed by entry. Tags and fused reporters are not part of them.
UniProt P23977, whole entry: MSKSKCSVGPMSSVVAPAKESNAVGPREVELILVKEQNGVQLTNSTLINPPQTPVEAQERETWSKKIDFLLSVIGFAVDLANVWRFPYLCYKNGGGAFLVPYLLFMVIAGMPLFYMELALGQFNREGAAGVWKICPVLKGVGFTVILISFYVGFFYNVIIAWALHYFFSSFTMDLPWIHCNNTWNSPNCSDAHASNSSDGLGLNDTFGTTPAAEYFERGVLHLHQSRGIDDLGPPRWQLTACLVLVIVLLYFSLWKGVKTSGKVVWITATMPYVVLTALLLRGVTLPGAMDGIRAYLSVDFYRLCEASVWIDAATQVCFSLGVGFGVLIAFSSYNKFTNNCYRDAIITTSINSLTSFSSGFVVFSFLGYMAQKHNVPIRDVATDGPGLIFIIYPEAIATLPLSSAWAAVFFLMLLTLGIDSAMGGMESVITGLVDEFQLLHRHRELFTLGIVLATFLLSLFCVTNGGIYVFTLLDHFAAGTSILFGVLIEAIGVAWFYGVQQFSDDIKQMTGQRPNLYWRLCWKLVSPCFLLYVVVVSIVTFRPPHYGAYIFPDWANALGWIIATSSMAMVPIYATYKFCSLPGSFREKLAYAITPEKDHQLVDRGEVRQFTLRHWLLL

Test [1] is described as follows: Selectivity ratio of DAT over SERT.
For test [2], the target named is Sodium-dependent dopamine transporter (Rattus norvegicus, UniProt P23977). Briefly: Displacement of [3H]WIN35428 from DAT in Sprague-Dawley rat brain homogenates after 1 hr by scintillation counting. It is filed as tissue-based. In short, it runs like this: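 Male Sprague-Dawley rats (200–250 g); caudate-putamen homogenised in ice-cold modified Krebs-HEPES buffer pH 7.4, washed by repeated 20,000 × g spins; fresh membranes ~0.3% w/v (150–300 µg protein). Nonspecific: 100 µM cocaine.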
(In a radioligand displacement assay an active substance lowers the binding of a labelled ligand.)

The species entered for the next test is Rattus norvegicus. Briefly: Selectivity ratio of Ki for SERT in Sprague-Dawley rat brain homogenates to Ki for DAT in Sprague-Dawley rat brain homogenates. It is filed as tissue-based.

Broadly, the Ki is the dissociation constant of the complex between target and ligand, obtained from inhibition or displacement. Read a low Ki as higher affinity. Turning to `Fc1ccc(C(OC/C=C2\C[C@H]3CC[C@@H](C2)N3Cc2ccccc2)c2ccc(F)cc2)cc1`, the Ratio in test [1] came out at 300. The compound also had a Ki in test [2] of 7.9 nM. Further, the Ratio Ki in the test filed under Rattus norvegicus amounted to 281.
